Measured values published in patent US20090130086A1.

Columns and labels:
[1] = target: rFXIII V34L, V35T (human) (UniProt P00488)
rFXIII V34L (human) = rFXIII V34L (human) (UniProt P00488)
rFXIII wt (human) = rFXIII wt (human) (UniProt P00488)

thrombin turnover [1]: 1.56 s⁻¹ | thrombin turnover (rFXIII V34L (human)): 0.671 s⁻¹ | thrombin turnover (rFXIII wt (human)): 0.207 s⁻¹
Substance: human thrombin (Roche) (from UniProt P00734) (enzyme)
